Experimental data as given in patent US20230218577A1, “USE OF HEAT SHOCK PROTEIN INHIBITORS FOR THE TREATMENT OF NEURODEVELOPMENTAL DISORDERS” (The Children's Medical Center Corporation, priority 2020, published 2023).
Where two headings read alike, the source gives them in different places. Square brackets hold non-standard residues; d marks the D form. Peptide text beside a SMILES is read from it. * marks the point of attachment. Sta = CC(C)C[C@H](N)[C@@H](O)CC(=O)O; Isovaleryl = CC(C)CC(=O)*

Tested on: mTORC1 activity (pS6) in Tsc2-sh hippocampal neurons
Assay: mTORC1 high-content screen (mTORC1^HCA) with the Biomol collection library
[1] = Z-score of percent GFP+pS6+ neurons in compound-treated Tsc2-knockdown wells, DIV20, Biomol library, replica 1
[2] = Z-score of percent GFP+pS6+ neurons in compound-treated Tsc2-knockdown wells, DIV20, Biomol library, replica 2
[3] = Z-score of percent GFP+pS6+ neurons in compound-treated Tsc2-knockdown wells, DIV20, Biomol library screen, replica 1
[4] = Z-score of percent GFP+pS6+ neurons in compound-treated Tsc2-knockdown wells, DIV20, Biomol library screen, replica 2

Row | Compound | T2 Zscore (Replica 1) | T2 Zscore (Replica 2) | other results
1 | CCCCC[C@H](O)/C=C/[C@@H]1[C@@H](C/C=C\CCCC(=O)O)[C@H](O)C[C@H]1O [9b, 11a-Prostaglandin F2] | −0.2089 | −1.16 | 
2 | Ryanodine | 0.3281 | −0.256 | 
3 | CCCCC[C@H](O)/C=C/C=C\CCCCCCCC(=O)O [13(S)-HODE] | 1.518 | −0.5985 | 
4 | CCCCCCCCCCCCCCC[C@@H](O)[C@H](CO)NC(=O)CCCCCCC [C8 Dihydroceramide] | −2.013 | −0.466 | 
5 | CCN(CC)CC(=O)Nc1c(C)cccc1C.Cl.O [Lidocaine•HCl•H2O] | −0.5275 | 0.02272 | 
6 | CCCCC/C=C\C=C\[C@H](CCCCCCCC(=O)O)OO [9(S)-HPODE] | −0.1465 | −0.3361 | 
7 | CCCCCC1OC1C/C=C\C/C=C\C/C=C\CCCC(=O)O (racemic) | 1.341 | 1.193 | 
8 | COC(=O)C1=C(C)NC(C)=C(C(=O)OCCSc2ccccc2)C1C (stereo not drawn) [PCA 4248] | −0.3678 | −0.1661 | 
9 | CC(COc1ccccc1)N(CCCl)Cc1ccccc1 (stereo not drawn) [Phenoxybenzamine] | 0.3205 | 0.3192 | 
10 | CCCCC/C=C\C/C=C\C/C=C\C/C=C\CCCCCC(=O)O [Adrenic acid (22:4, n-6)] | −0.259 | −0.347 | 
11 | CCCCCCCCCCCCCCCCCCc1ccc(C(=O)/C=C/C(=O)O)cc1 [OBAA] | 0.1726 | 0.8212 | 
12 | Mastoparan | 0.1064 | −0.3153 | 
13 | CC/C=C\C/C=C\C/C=C\CCCCCCCC(=O)O [Linolenic acid (18:3 n-3)] | 0.3774 | −0.4887 | 
14 | CC1=C(CC/C(C)=C/CCC2=CC[C@H](C3=CC(=O)O[C@H]3O)O[C@H]2O)C(C)(C)CCC1 [Manoalide] | −0.2077 | 0.1854 | 
15 | CCCCCCCCCCCCCCCC(=O)OC[C@H](COP(=O)(O)O)OC(=O)CCCCCCCCCCCCCCC [Dipalmitoylphosphatidic acid] | −1.633 | 0.5306 | 
16 | C[C@@]1(CO)[C@H](O)CC[C@@]2(C)[C@H]1CC[C@H]1C[C@@H]3C[C@@]12CC[C@]3(O)CO [Aphidicolin] |  |  | T2 Zscore (Replica 1) [1]: 1.019; T2 Zscore (Replica 2) [2]: 0.8185
17 | CCCCC[C@H](O)/C=C/C=C\C/C=C\C/C=C\CCCC(=O)O [15(S)-HETE] | −0.8769 | −0.1922 | 
18 | CC(C)(C)c1cc(O)c(C(C)(C)C)cc1O [2,5-Ditertbutylhydroquinone] |  |  | T2 Zscore (Replica 1) [3]: 0.8977; T2 Zscore (Replica 2) [4]: 0.1443
19 | CCC(C)[C@H](NS(=O)(=O)c1cccc2ccccc12)C(=O)N[C@H](C=O)Cc1c[nH]c2ccccc12 (stereo partly drawn) [NapSul-Ile-Trp-CHO] | 0.2642 | −0.9931 | 
20 | COCc1nc2c([nH]1)c(=O)n(C)c(=O)n2CC(C)C [8-methoxymethyl-IBMX] | 0.6281 | 0.7969 | 
21 | CCCCCCCC/C=C\C/C=C\C/C=C\CCCC(=O)NCCO [Mead ethanolamide] | 0.2396 | −2.455 | 
22 | CCN1C[C@]2(COC)[C@H](O)C[C@H](OC)[C@@]34[C@@H]5C[C@@]6(O)[C@H](OC(=O)c7ccccc7)[C@@H]5[C@@](OC(C)=O)([C@@H]([C@H](OC)[C@H]23)[C@@H]14)[C@@H](O)[C@@H]6OC [Aconitine] | 1.129 | 1.17 | 
23 | CN(C)C(=O)C(CCN1CCC(O)(c2ccc(Cl)cc2)CC1)(c1ccccc1)c1ccccc1.Cl [Loperamide•HCl] | 0.8171 | −1.394 | 
24 | CC(C)[C@@H]1NC(=O)[C@H](C)OC(=O)[C@@H](C(C)C)NC(=O)[C@@H](C(C)C)OC(=O)[C@H](C(C)C)NC(=O)[C@H](C)OC(=O)[C@@H](C(C)C)NC(=O)[C@@H](C(C)C)OC(=O)[C@H](C(C)C)NC(=O)[C@H](C)OC(=O)[C@@H](C(C)C)NC(=O)[C@@H](C(C)C)OC1=O [Valinomycin] | −1.656 | −1.688 | 
25 | CCCCCCCCCCCCCCCC(=O)C1=C(O)C(CO)OC1=O (stereo not drawn) [RK-682] | 1.329 | −0.1327 | 
26 | CC(N)=NCc1cccc(CN)c1.Cl.Cl [1400W•2HCl] | −0.5593 | −0.3175 | 
27 | CCCCC/C=C\C\C=C/C=C/C=C/[C@@H](SC[C@H](N)C(=O)O)[C@@H](O)CCCC(=O)O [Leukotriene E4] |  |  | T2 Zscore (Replica 1) [1]: 1.061; T2 Zscore (Replica 2) [2]: 0.8339
28 | O=c1[nH]c2cc(C(F)(F)F)ccc2n1-c1cc(C(F)(F)F)ccc1O [NS-1619] | 0.05511 | 0.2919 | 

Row | Compound | T2 Zscore (Replica 1) | T2 Zscore (Replica 2) | other results
29 | CCCCCCCCCCCCC/C=C/[C@@H](O)[C@H](CO)NC(=O)CCCCCCCCCCCCCCC [C16 Ceramide] | 0.9862 | 0.3004 | 
30 | Cc1coc2c1C(=O)C(=O)c1c-2ccc2c1CCCC2(C)C [Tanshinone IIA] |  |  | T2 Zscore (Replica 1) [3]: 0.3714; T2 Zscore (Replica 2) [4]: 1.072
31 | CC(C)CC(=O)N[C@H](C(=O)N[C@H](C(=O)N[C@@H](CC(C)C)[C@@H](O)CC(=O)N[C@@H](C)C(=O)N[C@@H](CC(C)C)[C@@H](O)CC(=O)O)C(C)C)C(C)C [Pepstatin] (Isovaleryl-VV[Sta]A[Sta]-OH) | −0.4556 | −0.5908 | 
32 | CCCCC/C=C\CC1OC1C/C=C\C/C=C\CCCC(=O)O (racemic) [(±)11(12)-Epoxy eicosatrienoic acid] | 0.8776 | 0.8285 | 
33 | C#CCN(C)C(C)Cc1ccccc1 (stereo not drawn) [Deprenyl] | −0.411 | −0.238 | 
34 | COC(=O)[C@@]1(O)C[C@H]2O[C@]1(C)n1c3ccccc3c3c4c(c5c6ccccc6n2c5c31)C(=O)NC4 [K252A, reference compound] | −2.515 | −2.779 | hit in mTORC1 screen (Z-score <−1.8 in both replicas): positive hits
35 | CCCCC[C@H](O)/C=C/[C@@H]1[C@@H](C/C=C\CCCC(=O)O)[C@H]2CO[C@@H]1C2 [U-46619] | 0.8892 | −0.9246 | 
36 | CCCCC/C=C\C/C=C\CCCCCCCC(=O)OC(CO)COC(=O)CCCCCCCCCCCCCCCCC (stereo not drawn) [1-Stearoyl-2-lineoyl-glycerol] | 0.1701 | 1.561 | 
37 | c1ccc2c(Cc3c[nH]c4ccccc34)c[nH]c2c1 [Diidolylmethane] | 0.6105 | 0.2083 | 
38 | COc1ccc(CCN(C)CCCC(C#N)(c2ccc(OC)c(OC)c2)C(C)C)cc1OC (stereo not drawn) [Verapimil] | −0.4145 | −1.255 | 
39 | N#CC(C#N)=Cc1ccc(O)cc1 [Tyrphostin-8] | −0.5297 | 0.8841 | 
40 | CCCCCCCCCCCCCC(=O)N[C@H](C)[C@@H](O)c1ccccc1 [D-erythro-MAPP] | −3.005 | 0.5186 | 
41 | CCCCC/C=C\C/C=C\C/C=C\C/C=C\CCCC(=O)N[C@H](C)CO [(R)-(+)-Methandamide] | 0.1139 | 0.7185 | 
42 | CC/C=C\C/C=C\C/C=C\C/C=C\C/C=C\C/C=C\CCC(=O)O [Docosahexaenoic acid(22:6 n-3)] | 1.067 | 0.7813 | 
43 | COc1ccc2c(c1)CC[C@@H]1[C@@H]2CC[C@]2(C)[C@@H](NCCCCCCN3C(=O)C=CC3=O)CC[C@@H]12 [U73122] | 0.4045 | 1.6 | 
44 | Cc1ccc2c(c1)C(=O)C1(O)CCN(c3ccccc3)C1=N2 (stereo not drawn) [Blebbistatin] | −0.001023 | 0.1611 | 
45 | CC(O)(C(=O)Nc1ccc(S(=O)(=O)c2ccccc2)cc1)C(F)(F)F (stereo not drawn) [ZM226600] | −0.4912 | −0.7905 | 
46 | CCCCC[C@H](O)/C=C/[C@@H]1[C@@H](CCCCCCC(=O)O)[C@@H](O)C[C@H]1O [Prostaglandin F1a] | −0.8799 | −0.6804 | 
47 | CCCCCCCCCCCCCCC(F)C(=O)O (stereo not drawn) [2-Fluoropalmitic acid] |  |  | T2 Zscore (Replica 1) [3]: 0.8052; T2 Zscore (Replica 2) [4]: −0.04616
48 | O=c1c(-c2ccc(O)cc2)coc2cc(O)cc(O)c12 [Genistein] |  |  | T2 Zscore (Replica 1) [3]: 0.2561; T2 Zscore (Replica 2) [4]: −0.1193
49 | CC(=O)N[C@@H](CC(C)C)C(=O)N[C@@H](CC(C)C)C(=O)N[C@H](C=O)CCCNC(=N)N [Leupeptin] | 0.9139 | 0.8873 | 
50 | C[C@]12C=CC(=O)C=C1CC[C@@H]1C2=CC[C@]2(C)[C@@H](C(=O)CN3CCN(c4cc(N5CCCC5)nc(N5CCCC5)n4)CC3)CC[C@@H]12.O=C(O)/C=C\C(=O)O [U-74389G] | −0.7285 | 0.2421 | 
51 | CCCCCCCC/C=C\CCCCCCCC(=O)OCC(CO)OC(=O)CCCCCCC/C=C\CCCCCCCC (stereo not drawn) [1,2-Dioleoyl-glycerol (18:1)] | −0.3636 | −0.5685 | 
52 | COc1ccc(CCN(C)CCc2ccc(OC)c(OC)c2)cc1OC [YS035] | 0.7096 | 0.4072 | 
53 | O=C(O)CNC(=O)C(CS)Cc1ccccc1 (stereo not drawn) [Thiorphan] |  |  | T2 Zscore (Replica 1) [3]: −0.5041; T2 Zscore (Replica 2) [4]: 0.9397
54 | CCCCC/C=C\C/C=C\C/C=C\C/C=C\CCCC(=O)NCCO [Anandamide (20:4, n-6)] | 0.08599 | 0.05658 | 
55 | Cc1ccc(NC(=O)c2cccc(N(C)C)c2)cc1NC(=O)c1ccc(O)cc1 [ZM336372] | 0.6466 | 1.125 | 
